Our source for the Serum urea nitrogen values is patent publication US20220023289A1, “Application Of Pyrroloquinoline Quinone In Preparation Of Medicament Used For Preventing And Treating Acute Altitude Sickness And Acute Altitude Hypoxia Injury” (priority 2018, published 2022).

This assay has as its system rats exposed to acute altitude hypoxia. Briefly: Renal function in rats exposed to acute altitude hypoxia. The assay is classed as in vivo, Wistar rat. As to conditions: 0.11 g/kg.

In turn, `CC(=O)Nc1nnc(S(N)(=O)=O)s1` [Acetazolamide, reference compound] came in with a Serum urea nitrogen (female rats) of 8.02 ± 1.05 mmol/L and a Serum urea nitrogen (male rats) of 7.99 ± 1.03 mmol/L.
